The text below walks through data of PubChem BioAssay AID1434 (Sanford-Burnham Center for Chemical Genomics, 2008).

Protein sequences, listed by entry. Tags and fused reporters are not part of them.
UniProt Q01196, whole entry, looked up: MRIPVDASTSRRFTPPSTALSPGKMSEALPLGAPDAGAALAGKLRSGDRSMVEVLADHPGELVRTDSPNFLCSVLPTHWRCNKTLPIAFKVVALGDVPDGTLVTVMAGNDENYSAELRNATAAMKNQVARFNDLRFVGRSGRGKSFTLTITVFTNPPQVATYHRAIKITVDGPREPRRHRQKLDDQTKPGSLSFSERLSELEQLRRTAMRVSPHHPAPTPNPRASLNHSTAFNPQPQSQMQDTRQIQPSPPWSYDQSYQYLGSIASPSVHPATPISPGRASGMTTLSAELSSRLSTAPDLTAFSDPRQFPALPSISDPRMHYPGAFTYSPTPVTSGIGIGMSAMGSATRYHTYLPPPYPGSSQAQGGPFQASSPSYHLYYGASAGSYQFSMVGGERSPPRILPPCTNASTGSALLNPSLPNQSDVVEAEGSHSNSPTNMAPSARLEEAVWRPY
UniProt Q13951, whole entry, looked up: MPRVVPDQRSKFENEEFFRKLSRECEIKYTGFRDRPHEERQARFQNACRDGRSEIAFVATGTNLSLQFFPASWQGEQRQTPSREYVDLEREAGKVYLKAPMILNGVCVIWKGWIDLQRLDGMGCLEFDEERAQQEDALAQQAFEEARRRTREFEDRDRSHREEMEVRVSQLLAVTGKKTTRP

The list shows a part of the results, in another mix than the full data. The source made the active and inactive calls.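 The calls were made as follows: active = mean inhibition across duplicate retests at 20 µM reaching about 50% (limit read from the data); inactive = the rest, inconclusive results apart.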

In this test the target is Runt-related transcription factor 1 (Homo sapiens) + Core-binding factor subunit beta (Homo sapiens) (UniProt Q01196+Q13951). The test can be described thus: inhibitors of RUNX1 Runt–CBFb-SMMHC binding, primary screen, biochemical, FRET, Cerulean-Runt, Venus-CBFb-SMMHC, uHTS (AID 1434).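 Also: 0% = DMSO wells and 100% = wells with excess untagged CBFb-SMMHC; inhibitors lower the FRET ratio by blocking Runt binding to CBFb-SMMHC.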 To be noted: Cerulean-Runt/Venus-CBFb-SMMHC FRET ratio 530/480, 1 h; at 20 µM; active compounds read high.
One may read the inhibition as the relative decrease from the control value, in per cent. With `CCc1ccc(OP(C)(=O)O)cc1`, the inhibition was inactive: -1.9%.
